# Results reported in publication PMC8041193 (PLoS ONE, 2021).
# Ends that are not written are not given here.
# Test: LA concentration in porcine intestinal fluid collected via in vivo ultrafiltration probes, UPLC-MS/MS;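 further: pigs aged 6–8 weeks and weighing 15–20 kg, intestinal fluid sampled through surgically implanted ultrafiltration probes whose placement was checked post mortem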
# Details: pig, fasted, oral 1 mg LA clinical formulation; at 1 hour in the distal duodenum and the proximal jejunum; range of individual samples
sequence,measurement,value
"GGVLVQPG [LA, Larazotide acetate]",Peak LA concentrations,0.32 to 1.76 µM
